Patent US8076288B2 (priority 2004, dated 2011)

What was measured:
[1] = tested on: pancreatic amylase secretion; details: cited from earlier work
calcitonin receptor = biological target: T1, calcitonin receptor (Rattus norvegicus, UniProt P32214); format: binding; details: read-out: IC50, CT RBA (C1A)
T1 construct: host or cells: general text: 'CHO cells or T47D cells'
T1 sequence (P32214 25-479 isoform P32214-2 limits assumed): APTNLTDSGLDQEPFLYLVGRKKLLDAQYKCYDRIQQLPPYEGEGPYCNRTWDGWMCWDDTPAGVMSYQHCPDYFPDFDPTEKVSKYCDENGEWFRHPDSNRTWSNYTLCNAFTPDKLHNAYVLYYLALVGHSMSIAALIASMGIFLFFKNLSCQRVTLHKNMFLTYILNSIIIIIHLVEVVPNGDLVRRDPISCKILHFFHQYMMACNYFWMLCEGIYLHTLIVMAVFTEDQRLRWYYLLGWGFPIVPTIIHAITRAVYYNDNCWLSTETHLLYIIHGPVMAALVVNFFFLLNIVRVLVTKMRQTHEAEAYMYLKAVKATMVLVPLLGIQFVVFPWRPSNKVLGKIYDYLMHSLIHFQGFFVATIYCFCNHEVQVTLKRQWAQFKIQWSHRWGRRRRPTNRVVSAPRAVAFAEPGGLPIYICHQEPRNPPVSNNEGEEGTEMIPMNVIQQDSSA

Row | Substance | potency in stimulating pancreatic amylase secretion relative to unsulfated CCK-8 or CCK-4 [1] | IC50 (calcitonin receptor) [nM]
1 | DY(SO3) MGWMDF-NH2 [CCK-8] | approximately 1000 fold | 
2 | [Ser117, dLeu119]leptin(116-122)-Amylin(1-7)-[^11,18Arg]sCT(8-27) -Amylin(33-37) [Compound 16] |  | 0.063
